Target: Syk kinase (Homo sapiens, UniProt P43405)
Assay: SYK Enzymatic Assay (Z-LYTE Tyr 2 peptide)
Format: biochemical
Settings: 8 concentrations 1 μM down to 0.0003 μM
Method: Syk kinase assay are performed in vitro using Kit-Tyr 2 Peptide (Invitrogen, Cat. No. PV3191) and in a 384-well assay plate. […] The 384-well assay plate (Corning, Cat. No. 3575) is mixed and incubated at room temperature for 1 hour. 10 μL of the Development Solution (prepared by diluting Development Reagent A (Cat. No. PV3297) to 1/32 with Development Buffer (Cat. No. PV3127)) is then added to each well, mixed and incubated at room temperature for another 1 hour. The reactions are then stopped by adding 10 μL of the Stop Reagent (Invitrogen, Cat. No. PV3094), and the plate is read with Wallac 1420 VICTOR^3 Multilabel Counter (PerkinElmer™) at 445 nm and 520 nm fluorescence. All compounds are tested at 8 concentrations (1 μM down to 0.0003 μM) using a 1:3 serial dilution scheme.

`CN(C)CCC(=O)N1CCO[C@H](COc2nc(-c3ccc(N4CCOCC4)cc3)cc3nccnc23)C1` [Compound 60, (S)-3-(dimethylamino)-1-(2-((7-(4-morpholinophenyl)pyrido[4,3-b]pyrazin-5-yloxy)methyl)morpholino)propan-1-one] showed an IC50 of 588 nM.
